Measured affinities in a library of Ab-14 light chain variants

Binding partner: SARS-CoV-2 spike HR2 peptide, sequence PDVDLGDISGINAS.

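The starting antibody came from a phage panning campaign against this peptide. Designed CDR sequences, proposed from the first random library and measured here. Their group label is 14L_Ctrl (Ctrl: baseline library sampled from a position-specific scoring matrix, with some repeated check sequences). In AlphaSeq, yeast of one mating type display the scFv and yeast of the other type display the target. Binding brings cells together so that they mate, and sequencing counts the barcode pairs among the diploids. The ratio of observed to expected reads was calibrated, replicate by replicate, on BCL2-family standards whose Kd was known from biolayer interferometry. Mating was done six times.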

Each scFv is VH, a 15-residue (Gly4Ser)3 linker, VL, as in the parent Ab-14, and differs from it in the CDRs of the light chain only.
VH: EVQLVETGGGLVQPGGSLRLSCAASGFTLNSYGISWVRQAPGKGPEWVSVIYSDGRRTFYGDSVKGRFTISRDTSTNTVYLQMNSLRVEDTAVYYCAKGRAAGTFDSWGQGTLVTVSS
VL: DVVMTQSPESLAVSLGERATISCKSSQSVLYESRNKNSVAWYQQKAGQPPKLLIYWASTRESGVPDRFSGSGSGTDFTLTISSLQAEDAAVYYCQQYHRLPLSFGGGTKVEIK

Substitutions are numbered in sequence along the VL above, starting at 1 (not Kabat). Scale: log10 of Kd in nM, estimated from mating counts; low values are strong binders. "n.d." means that the variant was in the library but no mating with the target was seen in that replicate; the authors take this as a sign of poor binding, and no number exists. Values of this round are not directly comparable with the first-round values of the same sequences. The authors' rule: three or more of the six replicates give a measured affinity, fewer mean a poor binder. As a blank, each scFv also met three strains without target: over all light chain designs, 4% of these pairings were detected, typically at 2.64 and seldom below 1.59. For each scFv, signals with the empty controls are counted beside the result, with their mean in brackets.

| changes | log10 Kd, replicates | empty controls |
|---|---|---|
| S25I+Q27E+L30E+W56G+H98D+L102V | 0.50 / 0.43 / 0.37 / 0.36 / 0.68 / 0.57 | 2/18 (2.45) |
| S25A+S33T+N37H+S103P | n.d. / n.d. / n.d. / n.d. / n.d. / n.d. | 0/18 |
| Q27W+S28N+R34Y+H98A | n.d. / 1.04 / 0.07 / n.d. / n.d. / 0.34 | 0/18 |
| V29D+S38W+E61S | n.d. / n.d. / 3.48 / n.d. / n.d. / 1.33 | 1/18 (1.59) |
| S25V+Y31D+K36G+S38N | 1.61 / 0.85 / 1.02 / 1.08 / 1.26 / 1.46 | 1/18 (2.97) |
| S25I+R34A+R99H | 1.53 / 1.23 / 1.70 / 1.28 / 1.51 / 1.91 | 0/18 |
| S25L+R34V+W56N | 0.02 / 0.00 / -0.04 / 0.07 / -0.03 / 0.05 | 1/18 (2.49) |
| S25L+Q27S+V29I+L30R+Y31G+W56Q+S58Q | 0.51 / 0.78 / 0.39 / 0.12 / 0.26 / 0.46 | 1/18 (2.60) |
| W56D+S62P | -0.01 / -0.16 / -0.03 / -0.32 / -0.27 / -0.08 | 1/18 (3.87) |
| L30W+W56S | n.d. / n.d. / 1.54 / 1.26 / 0.56 / 1.74 | 0/18 |
| W56P+R99W | n.d. / n.d. / n.d. / n.d. / n.d. / n.d. | 1/18 (1.83) |
| R34L+W56Q+T59E | 0.23 / 0.33 / 0.23 / 0.36 / 0.40 / 0.32 | 1/18 (2.10) |
| S25I+L30Q+E32M | 1.72 / 0.92 / 1.01 / 0.86 / 0.99 / 1.20 | 0/18 |
| Q27M+K36E+V39G+W56A | 0.79 / 0.30 / 0.89 / 1.36 / 0.35 / 0.95 | 0/18 |
| S28N+E32D+N35S+K36R | 1.91 / 1.58 / 1.36 / n.d. / n.d. / 0.88 | 0/18 |
| S25V+S33G+R34E+W56S | 0.01 / 0.02 / 0.11 / -0.01 / -0.02 / 0.39 | 1/18 (2.28) |
| V29D+L30M+Y31G+W56E+E61S+S103D | 1.99 / n.d. / 1.98 / 1.03 / 2.90 / 2.73 | 1/18 (2.90) |
| W56F+H98S | n.d. / n.d. / n.d. / n.d. / n.d. / n.d. | 0/18 |
| Y31M+W56N+Q96A+H98Y | n.d. / n.d. / n.d. / n.d. / n.d. / n.d. | 0/18 |
| S33F+K36T+E61I+Q96T+R99K | n.d. / n.d. / n.d. / n.d. / n.d. / n.d. | 1/18 (1.15) |
| S25I+V29E+E32S+S38H | 0.77 / 1.36 / 1.01 / 0.70 / 0.88 / 0.88 | 0/18 |
| S25L+Q27R+S28E+V29I+H98S+S103C | 0.37 / 0.44 / 0.52 / 0.32 / 0.21 / 0.47 | 2/18 (2.34) |
| S33Q | n.d. / n.d. / n.d. / n.d. / n.d. / n.d. | 0/18 |
| K24C+R34K+W56Y+S62C | n.d. / 1.67 / n.d. / 1.70 / n.d. / 3.89 | 1/18 (2.39) |
| S28G+R34E | 2.12 / 2.01 / 2.36 / 1.68 / 1.73 / 1.47 | 0/18 |
| Q27L+Y31K+S33D | 2.46 / 1.39 / 2.62 / 1.43 / 1.77 / 1.59 | 2/18 (2.43) |
| Q96M | n.d. / 2.25 / 1.90 / 1.66 / 1.99 / 1.69 | 1/18 (1.81) |
| T59K+S62L | n.d. / 2.09 / n.d. / n.d. / 2.01 / n.d. | 0/18 |
| S38G+A57G+H98F | 1.36 / 2.27 / 1.48 / n.d. / 0.90 / n.d. | 2/18 (1.55) |
| S26D+V29I | n.d. / 1.97 / 1.96 / 3.41 / 2.79 / 2.23 | 1/18 (2.13) |
| S33D+N35Y+H98L+S103W | n.d. / n.d. / n.d. / n.d. / n.d. / n.d. | 0/18 |
| S25D+N35S | n.d. / n.d. / n.d. / n.d. / 2.97 / 2.16 | 1/18 (1.95) |
| K36A+W56R | 0.10 / -0.52 / -0.13 / -0.60 / -0.40 / 0.00 | 1/18 (2.09) |
| W56Q+T59L | 0.92 / 0.45 / 0.80 / 0.67 / 0.61 / 1.04 | 2/18 (1.56) |
| S28H+W56S+Q96W | 1.60 / 1.07 / 1.18 / 1.27 / 0.96 / 0.98 | 0/18 |
| S38G+Y97T+P101H | n.d. / n.d. / n.d. / n.d. / n.d. / n.d. | 0/18 |

Repeated from above, the 5 best binders with a signal in all replicates:

| changes | log10 Kd, replicates | empty controls |
|---|---|---|
| K36A+W56R | 0.10 / -0.52 / -0.13 / -0.60 / -0.40 / 0.00 | 1/18 (2.09) |
| W56D+S62P | -0.01 / -0.16 / -0.03 / -0.32 / -0.27 / -0.08 | 1/18 (3.87) |
| S25L+R34V+W56N | 0.02 / 0.00 / -0.04 / 0.07 / -0.03 / 0.05 | 1/18 (2.49) |
| S25V+S33G+R34E+W56S | 0.01 / 0.02 / 0.11 / -0.01 / -0.02 / 0.39 | 1/18 (2.28) |
| R34L+W56Q+T59E | 0.23 / 0.33 / 0.23 / 0.36 / 0.40 / 0.32 | 1/18 (2.10) |

Reference: Li et al. 2023, doi:10.1038/s41467-023-39022-2. File: FLAb, binding data.